Measured values from PubChem BioAssay AID651819 (National Center for Advancing Translational Sciences (NCATS), 2012).
This is a selection; strong and weak results do not stand in their true shares. Calls of active or inactive are those of the source. Cut-off read from the data, not from the text of the source: active = activity change below about -30%; inactive = the rest.

Each molecule was assayed on cytosolic chaperonin (CCT/TRiC complex) (assay: High-Throughput Screening for Modulators of Cytosolic Chaperonin Activity). Details: purified chaperonin ATPase assay, HTRF ADP detection, 30 min; hits give low values.
From the text: The eukaryotic chaperonin named TRiC (for TCP-1 ring complex), also called CCT (for chaperonin containing TCP1), is an essential and conserved chaperone required for the folding and activation of 10-15% of the proteins encoded by the human genome. […] Despite its central role in cellular folding, little is known about TRiC mechanism and mode of substrate binding. Currently, no specific TRiC inhibitors are available. Given the early promise of other chaperone-directed inhibitors as cancer therapeutics (e.g. HSP90 inhibitors), inhibitors of TRiC activity may also selectively target transformed cells and have potential use as therapeutics for cancer.
To this end, a miniaturized assay was developed to screen against the Molecular Libraries Small Molecule Repository (MLSMR).
NIH Chemical Genomics Center [NCGC]
NIH Molecular Libraries Probe Centers Network [MLPCN]
Assay Submitter (PI): Judith Frydman, Stanford University
1.5 uL/well TRiC enzyme suspended in buffer (30 mM TRIS pH7.4, 100 mM KCl, 5 mM MgCl2, 1 mM DTT) was added with BioRAPTR FRD dispenser at 40 nM or 20 nM (based on the enzymatic activity of used batches) final concentration to a white solid bottom medium binding 1536-well plate (Greiner Bio-One, Monroe, NC), and quickly spanned down. 23 nl/well of compound solutions in DMSO were added with a pintool transfer (Kalypsis, San Diego, CA) at a single 76 uM final concentration. Next, 1.5 µl/well ATP was dispensed with BioraptR at 10 uM final concentration after which the plates were incubated at 37 deg C for 30 min. HTRF(R) Transcreener(R) ADP (Cisbio US, Bedford, MA) detection reagents were prepared accordingly to the protocol and dispensed into the plate (1.5 uL/well each), incubated for 30 min at ambient temperature. Then, the plates were read using Envision reader with excitation at 330nm and emission at 615nm (Eu(3)-Cryptate donor signal) and 665nm (d2 acceptor signal). The ratio of […] was calculated for each well.
% is set by controls: 0 for no effect and ±100 for the full control effect.

Question: With `c1nnnn1CCn1cnnn1` as the molecule, how does the activity change read?
Answer: inactive: -2.16%

Question: With `CC(C)C(=O)NC(Sc1ccccc1)C(Cl)(Cl)Cl` (stereo not given) as the molecule, how does the activity change read?
Answer: inactive: -0.594%

Question: Which activity change does the source give for `O=P(Nc1nccs1)(c1ccccc1)c1ccccc1` here?
Answer: inactive: 0.815%

Question: With `O=P(Nc1nc2ccccc2s1)(c1ccccc1)c1ccccc1` as the molecule, how does the activity change read?
Answer: inactive: 0.449%

Question: `C[C@H]1OP(=O)(Oc2ccccc2)[C@H](O)[C@H](O)[C@H]1N=[N+]=[N-]` (stereo not given in full) was tested. Which activity change did it give?
Answer: inactive: -1.25%

Question: For `O=P(Nc1ccccn1)(c1ccc(Br)cc1)c1ccc(Br)cc1`, which activity change is on record?
Answer: inactive: -0.944%

Question: How did the activity change turn out when `CN(C)C1(CNC(=O)c2ccc(Cl)c(S(N)(=O)=O)c2)CCCCC1` was run?
Answer: inactive: -2.16%

Question: How did the activity change turn out when `COc1ccc(N)c([N+](=O)[O-])c1[N+](=O)[O-]` was run?
Answer: inactive: -0.316%

Question: For `Nc1ccc(CCCCOc2ccccc2)cc1`, which activity change is on record?
Answer: inactive: -4.47%

Question: Which activity change does the source give for `O=C(OC1CN2CCC1CC2)c1cccc(Cl)c1` (stereo not given) here?
Answer: inactive: 2.03%

Question: With `C(Cc1nn[nH]n1)Cc1nn[nH]n1` as the molecule, how does the activity change read?
Answer: inactive: -2.18%

Question: `Nc1ccc([As](=O)(O)c2ccc([N+](=O)[O-])cc2)cc1` was tested. Which activity change did it give?
Answer: inactive: -1.73%

Question: For `O=[As](O)(c1ccccc1)c1ccc(O)cc1`, which activity change is on record?
Answer: inactive: 0.303%

Question: How did the activity change turn out when `O=[N+]([O-])c1ccc(O)c(/C=N/Nc2ccc([N+](=O)[O-])cc2[N+](=O)[O-])c1` was run?
Answer: inactive: 0.185%

Question: With `O=[N+]([O-])c1ncn(CCn2cnc([N+](=O)[O-])n2)n1` as the molecule, how does the activity change read?
Answer: inactive: 0.666%

Question: `CC(=O)NC(SC(=S)N(C)C)C(Cl)(Cl)Cl` (stereo not given) was tested. Which activity change did it give?
Answer: inactive: 0.876%

Question: How did the activity change turn out when `O=P1(N(CCCl)CCCl)OCCC2CCCCN21` (stereo not given) was run?
Answer: inactive: -1.43%

Question: With `c1ccc(-c2nn[nH]n2)c(-c2nn[nH]n2)c1` as the molecule, how does the activity change read?
Answer: inactive: -5.26%

Question: With `Cc1ccc(NP(=O)(Oc2cccc(C)c2)Oc2cccc(C)c2)nc1` as the molecule, how does the activity change read?
Answer: inactive: -4.49%

Question: `CCNC(=S)/N=C(\N)N[N+](=O)[O-]` was tested. Which activity change did it give?
Answer: inactive: 0.976%

Question: For `O=C(NC1CCS(=O)(=O)C1)NP(=S)(Oc1ccccc1)Oc1ccccc1` (stereo not given), which activity change is on record?
Answer: inactive: -1.9%

Question: For `CC(NC(=O)COC(=O)C(O)(c1ccccc1)c1ccccc1)c1ccccc1` (stereo not given), which activity change is on record?
Answer: inactive: -2.93%

Question: Which activity change does the source give for `Cc1ccccc1OP(=O)(Nc1ccccn1)Oc1ccccc1C` here?
Answer: inactive: 1.12%

Question: Which activity change does the source give for `O=c1c2cc([N+](=O)[O-])ccc2[nH]c2c([N+](=O)[O-])cc([N+](=O)[O-])cc12` here?
Answer: inactive: 0.0233%

Question: Which activity change does the source give for `CN(C)C(=O)Oc1noc2ccccc12` here?
Answer: inactive: -0.268%

Question: Which activity change does the source give for `O=C(OC1CN2CCC1CC2)c1ccccc1` (stereo not given) here?
Answer: inactive: 1.95%

Question: Which activity change does the source give for `CCC(=O)N1C2C3N(C(=O)CC)C1C1N(C(=O)CC)C(C(N1C(=O)CC)N3C(=O)CC)N2C(=O)CC` here?
Answer: inactive: 0.833%

Question: How did the activity change turn out when `COC(=O)c1cc2c(s1)N=C(c1ccccc1)N(C)P2(=O)N1CCOCC1` (stereo not given) was run?
Answer: inactive: -0.116%

Question: How did the activity change turn out when `Cc1ccc(OP(=O)(Nc2ccccn2)Oc2ccc(C)cc2)cc1` was run?
Answer: inactive: -2.26%

Question: How did the activity change turn out when `CC(=O)NC(SC(=S)N(CC(C)C)CC(C)C)C(Cl)(Cl)Cl` (stereo not given) was run?
Answer: inactive: -1.2%

Question: For `CC(C)(C)C(=O)NC(Sc1ccccc1)C(Cl)(Cl)Cl` (stereo not given), which activity change is on record?
Answer: inactive: -1.34%

Question: `CCc1cc(O)c([N+](=O)[O-])c(C)c1[N+](=O)[O-]` was tested. Which activity change did it give?
Answer: inactive: -2.5%

Question: How did the activity change turn out when `O=P1(Nc2nc3ccc(Cl)cc3s2)COc2ccccc2O1` (stereo not given) was run?
Answer: inactive: -1.11%

Question: For `CCOc1ccc(C2=NCC(CBr)S2)cc1` (stereo not given), which activity change is on record?
Answer: inactive: -3.45%

Question: With `CC(=O)Nc1ccc([As](=O)(O)O)c(O)c1` as the molecule, how does the activity change read?
Answer: inactive: -1.43%

Question: How did the activity change turn out when `CC(=O)Nc1ccc(Oc2c([N+](=O)[O-])cc([N+](=O)[O-])cc2[N+](=O)[O-])cc1` was run?
Answer: inactive: -2.67%

Question: Which activity change does the source give for `Cc1ccccc1CN(C)C(=O)COC(=O)C(O)(c1ccccc1)c1ccccc1` here?
Answer: inactive: -1.41%

Question: Which activity change does the source give for `C[C@H]1OP(=O)(Oc2ccccc2)C[C@@H]2O[C@@H]21` (stereo not given in full) here?
Answer: inactive: -0.493%

Question: How did the activity change turn out when `C[C@@H]1C=CCP(=O)(Oc2ccccc2)O1` (stereo not given in full) was run?
Answer: inactive: -2.6%

Question: `CC(=O)c1ccc(N2CC2c2ccncc2)cc1` (stereo not given) was tested. Which activity change did it give?
Answer: inactive: -2.99%

Question: `N#C/C(=C\c1ccc(N(CCBr)CCBr)cc1)C(N)=O` was tested. Which activity change did it give?
Answer: inactive: -1.48%

Question: For `COC(=O)C1(C)COP(=O)(NCc2ccccc2)OC1` (stereo not given), which activity change is on record?
Answer: inactive: -3.12%

Question: For `CN1CCCC(OC(=O)C(c2ccccc2)c2ccccc2)C1` (stereo not given), which activity change is on record?
Answer: inactive: -1.18%

Question: How did the activity change turn out when `Clc1ccc(Cl)c(NC2=NCC(CBr)S2)c1` (stereo not given) was run?
Answer: inactive: 0.806%

Question: With `COc1ccccc1OP(=O)(Nc1ccc(C)cn1)Oc1ccccc1OC` as the molecule, how does the activity change read?
Answer: inactive: -3.09%

Question: How did the activity change turn out when `Cc1ccc(OP(=O)(Nc2nccs2)Oc2ccc(C)cc2)cc1` was run?
Answer: inactive: -1.38%

Question: How did the activity change turn out when `CN(C(=O)Cc1ccc(Cl)c(Cl)c1)[C@H]1CCCC[C@H]1N1CCCC1` was run?
Answer: inactive: 0.201%

Question: For `Cc1ccc(N/C(=N/P(=O)(N2CCOCC2)N2CCOCC2)N2CCOCC2)cc1`, which activity change is on record?
Answer: inactive: 1.69%

Question: With `NC(=O)c1cc([N+](=O)[O-])cc([N+](=O)[O-])c1N` as the molecule, how does the activity change read?
Answer: inactive: 0.0842%

Question: With `O=[N+]([O-])C1C(O)C(O)C([N+](=O)[O-])C(O)C1O` (stereo not given) as the molecule, how does the activity change read?
Answer: inactive: 1.84%
